# Ab-14 light chain CDR variants: yeast mating affinities

The measurements come from Engelhart et al. 2022 (doi:10.1038/s41597-022-01779-4) through the FLAb antibody collection.

Target: peptide PDVDLGDISGINAS, taken from heptad repeat 2 (HR2) of SARS-CoV-2 spike.

Each scFv is VH, three GGGGS repeats, VL, as in the parent Ab-14, and differs from it in the CDRs of the light chain only.
VH: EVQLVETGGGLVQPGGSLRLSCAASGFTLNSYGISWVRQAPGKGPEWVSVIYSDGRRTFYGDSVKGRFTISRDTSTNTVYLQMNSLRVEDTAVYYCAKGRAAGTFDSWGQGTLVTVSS
VL: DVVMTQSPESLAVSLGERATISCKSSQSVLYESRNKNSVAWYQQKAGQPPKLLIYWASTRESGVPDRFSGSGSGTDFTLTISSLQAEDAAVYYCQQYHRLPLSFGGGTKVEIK

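The parent was found by panning a naive human phage display library on the peptide. Variants in AAYL50 differ from the parent at up to three CDR positions; double and triple changes were sampled at random. The scFvs were displayed on barcoded MATa yeast, the peptide on MATalpha yeast. The frequency of each diploid, read from paired DNA barcodes, reflects how well the two displayed proteins bind. A regression on co-assayed BCL2-family reference pairs converts the normalised counts of each replicate to an apparent Kd. Mating was done three times.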

Variants are written as CDR1, CDR2 and CDR3 of the light chain (limits as in the source). Parent: KSSQSVLYESRNKNSVA, WASTRES, QQYHRLPLS. Affinities are written as log10 Kd with Kd in nM; a lower number is a better binder. Averages over replicates are reported, and they cover detected replicates only. An entry "ND" has no value in the source: the pair was not observed among the diploids in that replicate. This suggests poor binding but is not conclusive. Parent in this assay: reference entry 0.65, copy in this library 1.68.

CDR-L1,CDR-L2,CDR-L3,"log10 Kd, replicates",mean log10 Kd (nM),control signals
KSSQSVLYESWNARSVA,WASTRES,QQYHRLPLS,1.50 1.73 1.58,1.60,5/9 (4.07)
TSSQSVLYESRNKNEVA,WKSTRES,QQYHRLPLS,ND 4.59 4.16,4.37,0/9
KRSQSVLYESRNKISVA,WAQTRES,QQYHRLPLS,3.80 ND 2.95,3.37,2/9 (5.04)
ISSQSVLYESRNKNSVA,WASTRMS,QQYHNLPLS,ND 1.35 1.71,1.53,0/9
KSSQSVLYESRNKNFMA,WASTRES,QQYHRLPLS,ND ND ND,ND,1/9 (3.98)
KKSQSVLYESRNKNSVE,WASTRPS,QQYHRLPLS,ND ND ND,ND,0/9
KSSQSVLYESRNKNSVA,WASTVES,QQGHRLPLS,ND ND ND,ND,0/9
KSSQSVLYESRNKNSVV,WANTRES,QQGHRLPLS,ND ND ND,ND,1/9 (2.52)
KSSQSVLWESENKNSVA,WASTRES,QQYHRLPLS,0.75 0.89 0.76,0.80,2/9 (4.61)
KSSQSVLYESRNKNSVA,WYSTVES,QQYHRLPLS,ND ND ND,ND,0/9
KSSQSVLYESRNKNSVA,SGSTHES,QQYHRLPLS,0.43 0.76 0.63,0.61,3/9 (4.60)
GSSQSELYESRNKNGVA,WASTRES,QQYHRLPLS,ND ND 3.73,3.73,2/9 (4.14)
KSSQSVKYESRNKNHVA,WASTRES,QQYDRLPLS,1.30 1.43 1.23,1.32,2/9 (4.90)
KSSQSYLYESRNKNSVA,WASTREI,QQYHNLPLS,0.95 1.00 1.04,0.99,1/9 (4.43)
KSSQSVLYESRNKNPVA,WASTRES,QQYHREPCS,0.84 1.02 1.16,1.01,0/9
KSSQSVLYESRNKNSVA,WGSTRES,GQYHRLPLS,2.32 2.37 2.66,2.45,4/9 (5.00)
KSQQSVLYESRNKNSDA,WASTRHS,QQYHRLPLS,ND ND ND,ND,1/9 (4.64)
KSWQSVLYESRNKNSVA,WASTREK,QQYHRNPLS,1.13 1.20 1.47,1.27,2/9 (4.50)
KSSQSVLYGSRNKNSVA,WASTRES,QQYHCLPLS,0.95 1.17 1.18,1.10,1/9 (4.47)
KSHQSVLDESRNKNSVA,WASTRES,QQYHRGPLS,-0.11 0.07 -0.20,-0.08,0/9
KRSLLVLYESRNKNSVA,WASTRES,QQYHRLPLS,ND ND ND,ND,1/9 (2.02)
KSSQSVLYESRNKNSVA,WASMRWS,QQYHRLCLS,ND ND ND,ND,1/9 (2.90)
KSSQGVLYESRNKNSVA,WQSTIES,QQYHRLPLS,ND ND ND,ND,1/9 (2.89)
KSSQSRLYESRNKNSVA,WASTRES,YQYHRLRLS,ND 4.39 ND,4.39,0/9
KSSQSVLYIIRNKNSVA,WASTRES,QQNHRLPLS,ND 4.03 ND,4.03,0/9
KSSQSVLYESRCKNSVA,WASTRES,QHYHRLPLE,3.03 3.85 3.51,3.46,2/9 (3.92)
KSSQSVLYEFRNKNSVA,WASTREN,QQYDRLPLS,1.39 1.51 1.76,1.55,0/9
KSSQSVLYESRNPNSVA,WDSTRES,QQYQRLPLS,5.88 3.94 ND,4.91,3/9 (4.96)
KSSQSVLYESRNKNSVA,WAHTRES,QGYHTLPLS,2.64 3.37 3.25,3.09,1/9 (3.28)
TSSQSVLRESRNVNSVA,WASTRES,QQYHRLPLS,ND 3.16 ND,3.16,1/9 (4.59)
KTSQSVLYESRNKNSVA,KASTRES,QQYWRLPLS,0.98 0.79 0.79,0.85,0/9
FSSQSVLDESRNKNSVA,WASTRES,IQYHRLPLS,1.94 2.03 1.45,1.81,1/9 (2.31)

The last 2 entries again:

{"CDR-L1": "KTSQSVLYESRNKNSVA", "CDR-L2": "KASTRES", "CDR-L3": "QQYWRLPLS", "log10 Kd, replicates": "0.98 0.79 0.79", "mean log10 Kd (nM)": "0.85", "control signals": "0/9"}
{"CDR-L1": "FSSQSVLDESRNKNSVA", "CDR-L2": "WASTRES", "CDR-L3": "IQYHRLPLS", "log10 Kd, replicates": "1.94 2.03 1.45", "mean log10 Kd (nM)": "1.81", "control signals": "1/9 (2.31)"}

Background: pairings of library AAYL50 with three empty control strains gave a value in 18% of cases (median 4.19, 5th percentile 2.99). Values in that range, when seen in few replicates, are hard to tell from nonspecific mating. Also given: how often the same scFv was detected with the empty control strains, with their mean in brackets.